# From patent publication US11576859B2, “Gastric residence systems for sustained release of therapeutic agents and methods of use thereof” (Lyndra Therapeutics, Inc., priority 2015, dated 2023)
# Experiment: physchem
# Settings: thermodynamic from solid
structure (smiles),measurement,setting,value
Cc1nc2n(c(=O)c1CCN1CCC(c3noc4cc(F)ccc34)CC1)CCCC2 [Risperidone],solubility,"pH 1.06, simulated gastric fluid",9940 µg/mL
same,solubility,"pH 3, aqueous buffer",22800 µg/mL
same,solubility,"pH 4.65, aqueous buffer",40800 µg/mL
same,solubility,"pH 6.5, aqueous buffer",1390 µg/mL
same,solubility,"pH 8, aqueous buffer",190 µg/mL
